Target: hA3 receptor (Homo sapiens, UniProt P0DMS8)
Test: Radioligand equilibrium displacement assay with [3H]PSB-11 on CHOhA3 membranes
Assay type: binding
Conditions: no GTP; displacement curves

Chains of the proteins cited; added tags and fusions are not shown.
UniProt P0DMS8, whole entry: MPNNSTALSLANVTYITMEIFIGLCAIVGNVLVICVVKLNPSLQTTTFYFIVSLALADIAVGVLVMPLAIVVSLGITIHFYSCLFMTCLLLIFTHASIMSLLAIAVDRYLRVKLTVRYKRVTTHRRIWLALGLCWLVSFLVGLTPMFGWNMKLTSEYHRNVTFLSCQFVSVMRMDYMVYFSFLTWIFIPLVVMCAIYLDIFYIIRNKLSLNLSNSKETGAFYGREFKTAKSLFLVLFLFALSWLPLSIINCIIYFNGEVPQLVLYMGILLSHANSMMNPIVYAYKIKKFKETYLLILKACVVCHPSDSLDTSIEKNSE

CNC(=O)[C@H]1O[C@@H](n2cnc3c(NCc4cccc(I)c4)nc(Cl)nc32)[C@H](O)[C@@H]1O [2-Cl-IB-MECA, 2-chloro-N^6-(3-iodobenzyl)-adenosine-5′-N-methyluronamide, reference compound]
Hill Slope: -0.85 ± 0.21 ^ns
